Ab-91 heavy chain CDR variants: yeast mating affinities

Target: peptide PDVDLGDISGINAS, taken from heptad repeat 2 (HR2) of SARS-CoV-2 spike.

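Phage display of a naive human antibody library on the peptide gave the parent. The library (AAYL51) carries one to three amino acid substitutions per variant, with no insertions or deletions. The scFvs were displayed on barcoded MATa yeast, the peptide on MATalpha yeast. Mating (16 h, 30 °C) was followed by selection of diploids and sequencing of their barcodes. Scores were corrected for input abundance and mapped to Kd with protein pairs of known affinity run in the same pool. Mating was done three times.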

Parent scFv Ab-91: VL joined to VH by a 15-residue (Gly4Ser)3 linker. Changes lie in the heavy chain CDRs alone.
VL: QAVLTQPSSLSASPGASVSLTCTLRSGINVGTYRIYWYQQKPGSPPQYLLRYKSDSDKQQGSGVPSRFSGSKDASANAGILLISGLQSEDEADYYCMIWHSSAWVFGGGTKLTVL
VH: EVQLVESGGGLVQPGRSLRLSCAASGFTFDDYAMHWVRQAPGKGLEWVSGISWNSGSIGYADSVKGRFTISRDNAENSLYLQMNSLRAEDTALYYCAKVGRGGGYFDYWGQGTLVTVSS

Variants are written as CDR1, CDR2 and CDR3 of the heavy chain (limits as in the source). Parent: GFTFDDYAMH, GISWNSGSIGYADSVK, VGRGGGYFDY. Kd is apparent (estimated from mating counts) and averaged on the log scale over replicates with a signal. Smaller is tighter. Where no diploid with the target was found in any replicate, the entry reads "not detected": below detection, most likely a poor binder, though not proof of it. Parent in this assay: reference entry 72 nM, copy in this library 7.5 nM. Background: pairings of library AAYL51 with three empty control strains gave a value in 21% of cases (median 34 µM, 5th percentile 1.8 µM). Values in that range, when seen in few replicates, are hard to tell from nonspecific mating.

{"CDR-H1": "GFTFDDYRMH", "CDR-H2": "GISWNSGSIPYADSVK", "CDR-H3": "VGRGGGYFDV", "apparent Kd": "not detected", "detected": "0/3"}
{"CDR-H1": "GFTFDDYAMH", "CDR-H2": "GISWNSGSIGYADRVK", "CDR-H3": "VGRGGGYFDG", "apparent Kd": "5.9 nM", "detected": "3/3"}
{"CDR-H1": "GFTFDDYAMH", "CDR-H2": "GISYNSGSIAYADSVK", "CDR-H3": "VGRGGGWFDY", "apparent Kd": "1.7 nM", "detected": "3/3"}
{"CDR-H1": "GFTHDDYAMH", "CDR-H2": "GISWNSGSIGYADSVK", "CDR-H3": "VPRGGGQFDY", "apparent Kd": "230 µM", "detected": "1/3"}
{"CDR-H1": "GFTFDDKAMH", "CDR-H2": "GISWNSGSIGYADSVK", "CDR-H3": "PGRGGWYFDY", "apparent Kd": "not detected", "detected": "0/3"}
{"CDR-H1": "WFTFTDYYMH", "CDR-H2": "GISWNSGSIGYADSVK", "CDR-H3": "VGRGGGYFDY", "apparent Kd": "55 µM", "detected": "2/3"}
{"CDR-H1": "GFTFDDYAMH", "CDR-H2": "GISWNEGSEGYDDSVK", "CDR-H3": "VGRGGGYFDY", "apparent Kd": "43 µM", "detected": "2/3"}
{"CDR-H1": "GSMFDDYAMH", "CDR-H2": "GISWHSGSIGYADSVK", "CDR-H3": "VGRGGGYFDY", "apparent Kd": "31 µM", "detected": "3/3"}
{"CDR-H1": "GFTFDDYFMH", "CDR-H2": "GISWNSGSIGYADSVK", "CDR-H3": "VGVGGGYFDY", "apparent Kd": "66 µM", "detected": "2/3"}
{"CDR-H1": "GFTFDDYAMH", "CDR-H2": "GISWNKGSTGYADSVK", "CDR-H3": "VGRLGGYFDY", "apparent Kd": "16 nM", "detected": "3/3"}
{"CDR-H1": "GFTFDDYAMH", "CDR-H2": "GISWNSGSIGYADHVD", "CDR-H3": "VGRYGGYFDY", "apparent Kd": "9.5 µM", "detected": "3/3"}
{"CDR-H1": "GFTFDDYAIH", "CDR-H2": "PISWNSGSIGYADSVK", "CDR-H3": "VGRGGGYFDY", "apparent Kd": "not detected", "detected": "0/3"}
{"CDR-H1": "GFTFDDYAMH", "CDR-H2": "GISWNSGSIGYADSVK", "CDR-H3": "VNRGGGYFAY", "apparent Kd": "not detected", "detected": "0/3"}
{"CDR-H1": "GFTFDYYAMH", "CDR-H2": "GISWNSGSIGYADSVK", "CDR-H3": "VGCGPGYFDY", "apparent Kd": "not detected", "detected": "0/3"}
{"CDR-H1": "GFTFRDYAMH", "CDR-H2": "GISWNSGSIGYADSVK", "CDR-H3": "VGRGGMVFDY", "apparent Kd": "40 µM", "detected": "3/3"}
{"CDR-H1": "GFWFDDYAMH", "CDR-H2": "GISWNSGSIGYAPSVK", "CDR-H3": "VGRGGGYFDY", "apparent Kd": "2.0 µM", "detected": "1/3"}
{"CDR-H1": "GFTFDDYAMH", "CDR-H2": "GIEWNSGSIMYADSVK", "CDR-H3": "VGRQGGYFDY", "apparent Kd": "200 µM", "detected": "3/3"}
{"CDR-H1": "GFTFDNYAMH", "CDR-H2": "TISNNSGSIGYADSVK", "CDR-H3": "VGRGGGYFDY", "apparent Kd": "390 µM", "detected": "2/3"}
{"CDR-H1": "GFFFDDYAMH", "CDR-H2": "GISWNSGSHGYADSVK", "CDR-H3": "VGRGGGGFDY", "apparent Kd": "35 µM", "detected": "3/3"}
{"CDR-H1": "GFTFDDYAMH", "CDR-H2": "GISWNSGRIGCADSVK", "CDR-H3": "VGRGGHYFDY", "apparent Kd": "250 µM", "detected": "2/3"}
{"CDR-H1": "GFTFDDYAMH", "CDR-H2": "GISWNSGSIGYADSVK", "CDR-H3": "VGRYGDYFDN", "apparent Kd": "130 nM", "detected": "3/3"}
{"CDR-H1": "GHTFDDYAMH", "CDR-H2": "GISQNSGSIGYADSVK", "CDR-H3": "VGRGGGYFAY", "apparent Kd": "65 µM", "detected": "1/3"}
{"CDR-H1": "GFTQDDYAMH", "CDR-H2": "GISWNSGCIGYADSIK", "CDR-H3": "VGRGGGYFDY", "apparent Kd": "not detected", "detected": "0/3"}
{"CDR-H1": "GFTFDDYAMH", "CDR-H2": "GISWNSGIINYADSWK", "CDR-H3": "VGRGGGYFDY", "apparent Kd": "8.9 µM", "detected": "1/3"}
{"CDR-H1": "GFTFFDYAMH", "CDR-H2": "GISWNSGSIGATDSVK", "CDR-H3": "VGRGGGYFDY", "apparent Kd": "not detected", "detected": "0/3"}
{"CDR-H1": "GFTFDDYRKH", "CDR-H2": "GISWNSGSIGYADSVK", "CDR-H3": "VGRGGGYGDY", "apparent Kd": "130 µM", "detected": "3/3"}
{"CDR-H1": "GFTFDDYAQH", "CDR-H2": "GISWNSGSIGYADTVK", "CDR-H3": "VGKGGGYFDY", "apparent Kd": "not detected", "detected": "0/3"}
{"CDR-H1": "GLTFDDYAMH", "CDR-H2": "GILWNSGSIGYAQSVK", "CDR-H3": "VGRGGGYFDY", "apparent Kd": "160 µM", "detected": "3/3"}
{"CDR-H1": "GFMFNDYAMH", "CDR-H2": "GISWNSGSIGYADSVK", "CDR-H3": "VGRGGGYFDQ", "apparent Kd": "24 nM", "detected": "3/3"}
{"CDR-H1": "GFTFDDYAMH", "CDR-H2": "GISWNMGSIGYADYVK", "CDR-H3": "VGAGGGYFDY", "apparent Kd": "370 nM", "detected": "2/3"}

Again, the first 4 entries without any signal:

{"CDR-H1": "GFTFDDYRMH", "CDR-H2": "GISWNSGSIPYADSVK", "CDR-H3": "VGRGGGYFDV", "apparent Kd": "not detected", "detected": "0/3"}
{"CDR-H1": "GFTFDDKAMH", "CDR-H2": "GISWNSGSIGYADSVK", "CDR-H3": "PGRGGWYFDY", "apparent Kd": "not detected", "detected": "0/3"}
{"CDR-H1": "GFTFDDYAIH", "CDR-H2": "PISWNSGSIGYADSVK", "CDR-H3": "VGRGGGYFDY", "apparent Kd": "not detected", "detected": "0/3"}
{"CDR-H1": "GFTFDDYAMH", "CDR-H2": "GISWNSGSIGYADSVK", "CDR-H3": "VNRGGGYFAY", "apparent Kd": "not detected", "detected": "0/3"}

The measurements come from Engelhart et al. 2022 (doi:10.1038/s41597-022-01779-4) through the FLAb antibody collection.